In this assay the target is Peptidyl-prolyl cis-trans isomerase A (Homo sapiens, UniProt P62937). Briefly: Potency index, ratio of CsA IC50 to compound IC50 for Cyclophilin A (unknown origin).

The chains behind the UniProt entries cited, without tags or fusion partners.
UniProt P62937, whole entry, looked up: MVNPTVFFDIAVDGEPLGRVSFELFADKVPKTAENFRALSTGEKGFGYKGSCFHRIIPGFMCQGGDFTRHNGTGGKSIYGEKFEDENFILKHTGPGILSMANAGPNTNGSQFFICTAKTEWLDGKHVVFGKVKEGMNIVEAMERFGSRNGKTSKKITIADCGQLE

The structures appear in SMILES notation.

In the case of `COc1cc(C(C(=O)NC2CCCCC2)N(C(=O)Cc2c[nH]c3ccccc23)c2ccc(C(C)C)cc2)cc(OC)c1OC` (stereo unspecified), the Ratio IC50 is 1.3.

The values above are taken from ChEMBL document CHEMBL3751796, “Structure-Based Discovery of Novel Cyclophilin A Inhibitors for the Treatment of Hepatitis C Virus Infections” (J Med Chem, 2015).
